IntAct's records for PubMed 35512704

B1: RAC-alpha serine/threonine-protein kinase (Homo sapiens), P31749 (parent)
chain: MSDVAIVKEGWLHKRGEYIKTWRPRYFLLKNDGTFIGYKERPQDVDQREAPLNNFSVAQCQLMKTERPRPNTFIIRCLQWTTVIERTFHVETPEEREEWTTAIQTVADGLKKQEEEEMDFRSGSPSDNSGAEEMEVSLAKPKHRVTMNEFEYLKLLGKGTFGKVILVKEKATGRYYAMKILKKEVIVAKDEVAHTLTENRVLQNSRHPFLTALKYSFQTHDRLCFVMEYANGGELFFHLSRERVFSEDRARFYGAEIVSALDYLHSEKNVVYRDLKLENLMLDKDGHIKITDFGLCKEGIKDGATMKTFCGTPEYLAPEVLEDNDYGRAVDWWGLGVVMYEMMCGRLPFYNQDHEKLFELILMEEIRFPRTLGPEAKSLLSGLLKKDPKQRLGGGSEDAKEIMQHRFFAGIVWQHVYEKKLSPPFKPQVTSETDTRYFDEEFTAQMITITPPDQDDSMECVDSERRPHFPQFSYSASGTA
partner: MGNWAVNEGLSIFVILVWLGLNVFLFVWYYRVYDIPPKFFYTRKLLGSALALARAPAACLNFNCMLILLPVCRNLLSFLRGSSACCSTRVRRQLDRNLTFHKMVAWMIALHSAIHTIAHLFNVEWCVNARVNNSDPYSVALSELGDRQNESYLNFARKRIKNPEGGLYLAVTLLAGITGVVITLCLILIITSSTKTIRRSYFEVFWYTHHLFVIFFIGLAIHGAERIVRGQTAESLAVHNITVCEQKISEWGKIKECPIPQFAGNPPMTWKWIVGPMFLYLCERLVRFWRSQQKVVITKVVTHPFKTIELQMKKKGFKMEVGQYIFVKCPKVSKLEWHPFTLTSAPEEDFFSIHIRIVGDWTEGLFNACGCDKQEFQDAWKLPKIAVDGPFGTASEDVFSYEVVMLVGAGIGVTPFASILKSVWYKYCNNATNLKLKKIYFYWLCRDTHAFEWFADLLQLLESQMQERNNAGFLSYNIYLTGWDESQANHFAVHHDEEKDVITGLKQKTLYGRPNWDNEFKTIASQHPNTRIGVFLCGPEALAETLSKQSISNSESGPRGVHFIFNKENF
B2: RAC-alpha serine/threonine-protein kinase (Homo sapiens), P31749 (parent)
chain: B1 chain
partner: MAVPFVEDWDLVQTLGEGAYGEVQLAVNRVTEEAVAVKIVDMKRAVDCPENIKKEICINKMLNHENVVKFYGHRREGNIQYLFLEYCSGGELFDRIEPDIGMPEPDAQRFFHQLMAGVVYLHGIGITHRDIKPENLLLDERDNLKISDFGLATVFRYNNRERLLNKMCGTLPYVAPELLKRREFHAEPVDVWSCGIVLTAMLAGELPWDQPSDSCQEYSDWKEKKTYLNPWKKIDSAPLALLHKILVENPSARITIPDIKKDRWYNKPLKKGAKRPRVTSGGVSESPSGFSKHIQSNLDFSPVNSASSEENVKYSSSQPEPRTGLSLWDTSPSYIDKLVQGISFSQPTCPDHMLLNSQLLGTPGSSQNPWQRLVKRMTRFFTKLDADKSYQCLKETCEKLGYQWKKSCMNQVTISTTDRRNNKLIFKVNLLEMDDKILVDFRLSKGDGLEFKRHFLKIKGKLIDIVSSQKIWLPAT
B3: RAC-alpha serine/threonine-protein kinase (Homo sapiens), P31749 (parent)
chain: B1 chain
partner: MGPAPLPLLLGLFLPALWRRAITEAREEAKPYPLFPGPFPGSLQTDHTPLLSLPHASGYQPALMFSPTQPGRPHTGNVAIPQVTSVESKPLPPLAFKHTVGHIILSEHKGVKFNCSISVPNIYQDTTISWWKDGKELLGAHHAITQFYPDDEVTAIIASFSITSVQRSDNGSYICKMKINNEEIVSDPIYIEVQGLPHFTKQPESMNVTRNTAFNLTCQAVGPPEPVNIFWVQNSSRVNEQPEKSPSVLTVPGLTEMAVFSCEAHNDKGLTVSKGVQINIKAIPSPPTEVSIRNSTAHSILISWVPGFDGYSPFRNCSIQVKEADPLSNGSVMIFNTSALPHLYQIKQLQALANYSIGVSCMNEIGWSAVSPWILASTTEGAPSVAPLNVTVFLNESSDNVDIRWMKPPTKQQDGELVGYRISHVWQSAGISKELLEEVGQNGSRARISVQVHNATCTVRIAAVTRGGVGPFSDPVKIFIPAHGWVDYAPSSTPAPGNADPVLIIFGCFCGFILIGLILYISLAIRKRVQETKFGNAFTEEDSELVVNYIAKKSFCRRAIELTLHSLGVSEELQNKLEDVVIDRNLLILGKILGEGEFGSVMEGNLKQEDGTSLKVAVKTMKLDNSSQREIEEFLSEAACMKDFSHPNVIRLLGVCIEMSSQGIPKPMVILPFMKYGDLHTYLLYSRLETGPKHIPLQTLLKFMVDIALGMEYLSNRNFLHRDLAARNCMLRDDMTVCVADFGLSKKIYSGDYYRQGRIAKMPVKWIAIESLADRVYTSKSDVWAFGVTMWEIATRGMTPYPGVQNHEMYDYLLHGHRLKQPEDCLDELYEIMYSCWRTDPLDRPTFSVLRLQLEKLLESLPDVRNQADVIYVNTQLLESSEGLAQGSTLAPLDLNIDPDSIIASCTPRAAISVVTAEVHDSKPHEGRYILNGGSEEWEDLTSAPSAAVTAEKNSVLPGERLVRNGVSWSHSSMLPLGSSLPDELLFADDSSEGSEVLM
B4: RAC-alpha serine/threonine-protein kinase (Homo sapiens), P31749 (parent)
chain: B1 chain
partner: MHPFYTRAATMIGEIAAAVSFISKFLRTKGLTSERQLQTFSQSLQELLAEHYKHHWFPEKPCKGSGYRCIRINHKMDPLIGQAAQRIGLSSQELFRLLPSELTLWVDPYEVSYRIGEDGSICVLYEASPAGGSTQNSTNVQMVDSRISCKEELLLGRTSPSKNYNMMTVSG
B5: RAC-alpha serine/threonine-protein kinase (Homo sapiens), P31749 (parent)
chain: B1 chain
partner: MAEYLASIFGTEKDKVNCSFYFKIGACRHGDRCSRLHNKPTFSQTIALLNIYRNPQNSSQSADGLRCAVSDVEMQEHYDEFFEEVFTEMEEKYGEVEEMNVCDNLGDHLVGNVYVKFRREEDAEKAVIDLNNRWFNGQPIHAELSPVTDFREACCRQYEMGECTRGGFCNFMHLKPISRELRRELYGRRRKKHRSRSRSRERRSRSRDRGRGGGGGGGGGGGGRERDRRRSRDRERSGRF
B6: RAC-alpha serine/threonine-protein kinase (Homo sapiens), P31749 (parent)
chain: B1 chain
partner: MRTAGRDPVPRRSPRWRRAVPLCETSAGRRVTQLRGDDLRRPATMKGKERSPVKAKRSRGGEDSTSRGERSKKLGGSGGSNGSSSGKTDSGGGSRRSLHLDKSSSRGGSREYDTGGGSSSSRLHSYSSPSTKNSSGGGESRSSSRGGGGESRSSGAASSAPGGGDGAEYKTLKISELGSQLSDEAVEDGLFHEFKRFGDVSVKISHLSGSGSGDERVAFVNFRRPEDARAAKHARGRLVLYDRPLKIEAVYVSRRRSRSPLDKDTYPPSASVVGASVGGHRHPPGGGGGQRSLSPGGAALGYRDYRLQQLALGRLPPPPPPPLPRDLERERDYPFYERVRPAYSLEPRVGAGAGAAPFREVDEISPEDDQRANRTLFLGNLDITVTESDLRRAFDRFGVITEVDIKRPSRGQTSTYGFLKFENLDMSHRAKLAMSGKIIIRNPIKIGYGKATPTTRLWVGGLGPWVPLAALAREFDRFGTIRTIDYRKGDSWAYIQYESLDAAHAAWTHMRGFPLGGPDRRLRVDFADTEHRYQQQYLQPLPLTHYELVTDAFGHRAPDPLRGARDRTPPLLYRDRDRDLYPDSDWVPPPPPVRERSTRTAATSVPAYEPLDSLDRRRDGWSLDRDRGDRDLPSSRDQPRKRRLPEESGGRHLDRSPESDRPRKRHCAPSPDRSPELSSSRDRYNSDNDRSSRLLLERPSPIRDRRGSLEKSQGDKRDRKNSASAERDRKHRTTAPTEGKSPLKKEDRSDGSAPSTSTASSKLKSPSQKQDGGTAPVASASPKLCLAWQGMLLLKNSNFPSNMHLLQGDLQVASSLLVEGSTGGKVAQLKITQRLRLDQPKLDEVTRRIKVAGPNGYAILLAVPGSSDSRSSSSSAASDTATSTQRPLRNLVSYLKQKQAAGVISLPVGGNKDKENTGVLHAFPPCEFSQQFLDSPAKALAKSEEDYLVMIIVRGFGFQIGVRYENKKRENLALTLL
B7: RAC-alpha serine/threonine-protein kinase (Homo sapiens), P31749 (parent)
chain: B1 chain
partner: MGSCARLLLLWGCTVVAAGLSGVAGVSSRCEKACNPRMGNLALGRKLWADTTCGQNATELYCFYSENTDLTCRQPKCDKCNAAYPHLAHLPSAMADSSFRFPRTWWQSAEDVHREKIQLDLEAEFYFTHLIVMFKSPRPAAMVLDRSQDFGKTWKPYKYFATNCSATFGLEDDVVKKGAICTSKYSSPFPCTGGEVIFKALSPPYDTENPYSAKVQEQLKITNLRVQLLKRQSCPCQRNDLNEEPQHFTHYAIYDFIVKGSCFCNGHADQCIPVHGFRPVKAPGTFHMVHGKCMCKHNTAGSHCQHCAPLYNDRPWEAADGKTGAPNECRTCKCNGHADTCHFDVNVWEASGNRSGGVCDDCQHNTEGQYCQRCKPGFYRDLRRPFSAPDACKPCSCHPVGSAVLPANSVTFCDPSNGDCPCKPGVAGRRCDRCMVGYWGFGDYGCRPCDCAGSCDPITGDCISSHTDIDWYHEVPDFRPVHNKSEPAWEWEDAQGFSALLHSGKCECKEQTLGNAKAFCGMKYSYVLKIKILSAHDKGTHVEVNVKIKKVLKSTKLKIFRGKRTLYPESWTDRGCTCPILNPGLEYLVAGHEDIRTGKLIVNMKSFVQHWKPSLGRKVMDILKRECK
B8: RAC-alpha serine/threonine-protein kinase (Homo sapiens), P31749 (parent)
chain: B1 chain
partner: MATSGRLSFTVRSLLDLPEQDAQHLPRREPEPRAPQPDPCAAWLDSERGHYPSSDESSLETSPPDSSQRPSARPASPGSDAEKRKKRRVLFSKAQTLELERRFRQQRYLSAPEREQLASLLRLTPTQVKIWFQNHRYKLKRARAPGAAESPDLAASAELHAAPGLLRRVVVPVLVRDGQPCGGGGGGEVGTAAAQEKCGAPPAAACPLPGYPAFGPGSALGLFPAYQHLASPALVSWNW
B9: RAC-alpha serine/threonine-protein kinase (Homo sapiens), P31749 (parent)
chain: B1 chain
partner: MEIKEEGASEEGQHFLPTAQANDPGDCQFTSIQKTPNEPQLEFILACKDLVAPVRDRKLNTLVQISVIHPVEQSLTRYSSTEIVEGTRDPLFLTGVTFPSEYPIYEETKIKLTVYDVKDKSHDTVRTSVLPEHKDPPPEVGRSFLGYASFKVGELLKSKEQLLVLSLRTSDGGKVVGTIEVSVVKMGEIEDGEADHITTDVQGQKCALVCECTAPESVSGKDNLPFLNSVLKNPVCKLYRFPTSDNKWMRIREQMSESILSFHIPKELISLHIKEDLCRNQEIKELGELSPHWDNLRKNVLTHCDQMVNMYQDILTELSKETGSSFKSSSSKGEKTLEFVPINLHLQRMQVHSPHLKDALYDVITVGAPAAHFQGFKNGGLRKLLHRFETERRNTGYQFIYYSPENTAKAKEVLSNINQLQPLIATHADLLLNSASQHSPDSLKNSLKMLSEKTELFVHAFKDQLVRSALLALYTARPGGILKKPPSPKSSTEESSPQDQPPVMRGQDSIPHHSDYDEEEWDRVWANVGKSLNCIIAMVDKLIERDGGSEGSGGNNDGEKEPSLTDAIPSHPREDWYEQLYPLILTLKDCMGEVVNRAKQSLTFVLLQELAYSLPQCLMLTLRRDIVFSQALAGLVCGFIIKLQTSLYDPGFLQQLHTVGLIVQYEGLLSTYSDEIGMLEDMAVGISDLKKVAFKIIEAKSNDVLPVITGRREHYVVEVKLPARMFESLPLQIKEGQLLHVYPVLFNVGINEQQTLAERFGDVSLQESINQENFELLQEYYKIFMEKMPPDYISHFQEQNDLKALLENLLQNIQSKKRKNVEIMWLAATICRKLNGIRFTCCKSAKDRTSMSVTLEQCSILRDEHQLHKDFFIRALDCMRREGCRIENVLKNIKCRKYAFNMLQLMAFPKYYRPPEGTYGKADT

Variants of: B1
Settings: with cy24b_human CYBB

Variant	effect of a mutation on the interaction
E17K	with no effect

Variants of: B2
Settings: with chk1_human CHEK1, O14757

Variant	effect of a mutation on the interaction
E17K	with no effect

Variants of: B3
Settings: with mertk_human MERTK

Variant	effect of a mutation on the interaction
E17K	with no effect

Variants of: B4
Settings: with btg1_human BTG1, P62324

Variant	effect of a mutation on the interaction
E17K	causing an interaction

Variants of: B4
Settings: with btg1_human BTG1, P62324
Remark: another data set of the same source

Variant	effect of a mutation on the interaction
E17K	increasing interaction strength

Variants of: B5
Settings: with U2AF1, Q01081

Variant	effect of a mutation on the interaction
E17K	with no effect

Variants of: B6
Settings: with rbm15_human RBM15, Q96T37

Variant	effect of a mutation on the interaction
E17K	with no effect

Variants of: B7
Settings: with net4_human NTN4, Q9HB63

Variant	effect of a mutation on the interaction
E17K	causing an interaction

Variants of: B8
Settings: with nkx28_human NKX2-8, O15522

Variant	effect of a mutation on the interaction
E17K	with no effect

Variants of: B9
Settings: with inp4b_human INPP4B

Variant	effect of a mutation on the interaction
E17K	with no effect
